Results from US20110009379A1, “INDOLINONE COMPOUND” (ASTELLAS PHARMA INC., priority 2008, published 2011).

Tested on: RIN14B cells
Experiment: Measurement of 5-HT secretion from RIN14B
Settings: 20 minutes at 37° C., relative to 300 μM allyl isothiocyanate = 100%, HBSS only = 0%
Experimental: In order to investigate whether TRPA1 is related to 5-HT release, 5-HT secretion promotion from RIN14B by a compound to be tested was measured.
The RIN14B cells cultivated in a petri dish were scraped using Phosphate buffered saline (PBS) containing 1 mM EDTA, distributed into 24 well plates, and cultivated for 2 days. As a medium, a medium in which 10% fetal bovine serum (ICN), 100 U/mL penicillin, and 100 μg/mL streptomycin was added to RPMI1640 (Invitrogen), was used. The cells were washed once with HBSS (Invitrogen) and added with 0.1% BSA and 10 μM fluoxetine (TOCRIS Co.), followed by dilution with the above HBSS, the prepared compound to be tested was added to RIN14B cells, followed by cultivation at 37° C., under 5% CO2 condition for 20 minutes. After cultivation, supernatant of cells was recovered, followed by freeze preservation. The content of 5-HT in the supernatant was measured by a commercial serotonin immunoassay kit (Beckman). 5-HT release promotion activation value (%) was evaluated as a relative value when the 5-HT release promotion value by 300 μM of allyl isothiocyanate was defined as 100%, and the 5-HT release promotion value by HBSS for dilution only was defined as 0%.

O=C1C(=Cc2nccs2)c2ccccc2N1Cc1ccccc1 (single isomer, unassigned)
5-HT release promotion activation value: 41.2%
